This is a selection; strong and weak results do not stand in their true shares.

Amino acid sequences for entries named in this document (tags omitted).
UniProt Q9Y3Z3, whole entry: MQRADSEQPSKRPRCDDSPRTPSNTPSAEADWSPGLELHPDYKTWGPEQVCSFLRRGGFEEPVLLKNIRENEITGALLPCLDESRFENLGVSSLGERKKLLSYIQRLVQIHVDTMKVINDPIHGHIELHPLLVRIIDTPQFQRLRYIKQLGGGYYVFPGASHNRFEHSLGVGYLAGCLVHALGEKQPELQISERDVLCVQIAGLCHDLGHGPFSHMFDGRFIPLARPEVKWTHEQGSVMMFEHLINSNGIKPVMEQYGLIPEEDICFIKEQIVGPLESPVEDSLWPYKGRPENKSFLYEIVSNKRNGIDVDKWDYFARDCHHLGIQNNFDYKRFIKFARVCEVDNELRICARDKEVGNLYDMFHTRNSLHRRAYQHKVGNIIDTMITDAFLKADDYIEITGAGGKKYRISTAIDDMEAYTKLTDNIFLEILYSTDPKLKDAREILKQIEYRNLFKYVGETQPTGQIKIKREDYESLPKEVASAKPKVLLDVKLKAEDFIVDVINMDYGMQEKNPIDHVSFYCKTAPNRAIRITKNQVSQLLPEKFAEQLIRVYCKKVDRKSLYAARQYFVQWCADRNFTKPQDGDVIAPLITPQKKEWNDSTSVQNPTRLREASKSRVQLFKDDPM

Consider 1 compound from ChEMBL document CHEMBL5483193, “Identification and evaluation of small-molecule inhibitors against the dNTPase SAMHD1 via a comprehensive screening funnel” (iScience, 2024).

This test has as its target Deoxynucleoside triphosphate triphosphohydrolase SAMHD1 (Homo sapiens) (UniProt Q9Y3Z3). The test can be described thus: Compound was evaluated for the inhibition of human recombinant SAMHD1 at 5uM in a enzyme-coupled malachite green assay.
Broadly, the inhibition is the drop in the measured response relative to a control, in per cent. As to `CN(CCCl)CCCl`, the inhibition is inactive: 19.8%.
